For the assay, the target named is E3 ubiquitin-protein ligase XIAP (Homo sapiens, UniProt P98170). Put plainly: ASSAY_NAME: In Vitro Competitive Displacement Binding Assay DESCRIPTION: Modified SMAC peptides and compounds were tested for their ability to displace the fluorescent tracer from either XIAP, cIAP-1 or cIAP-2. BIR3 domains of cIAP-1, cIAP-2 and XIAP were incubated with test compounds or SMAC based peptides and their respective peptide probes (Peptide Protein Research) in assay buffer (50 mM …. Conditions: pH 7.5.

The chains behind the UniProt entries cited, without tags or fusion partners.
UniProt P98170, whole entry: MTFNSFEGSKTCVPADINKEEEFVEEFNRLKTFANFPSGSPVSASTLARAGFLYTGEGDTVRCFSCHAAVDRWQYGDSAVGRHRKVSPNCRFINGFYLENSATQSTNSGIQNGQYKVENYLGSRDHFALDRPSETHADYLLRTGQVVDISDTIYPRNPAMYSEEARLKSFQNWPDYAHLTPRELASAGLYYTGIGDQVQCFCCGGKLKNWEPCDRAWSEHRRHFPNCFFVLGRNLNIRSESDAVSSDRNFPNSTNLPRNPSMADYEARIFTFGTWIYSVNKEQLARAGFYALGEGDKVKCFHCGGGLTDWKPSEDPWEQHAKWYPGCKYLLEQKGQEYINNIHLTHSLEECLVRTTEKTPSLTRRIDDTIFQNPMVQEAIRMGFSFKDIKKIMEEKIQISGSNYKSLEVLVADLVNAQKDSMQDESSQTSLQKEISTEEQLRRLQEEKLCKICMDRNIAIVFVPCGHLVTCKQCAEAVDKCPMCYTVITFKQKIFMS

With `CN[C@@H](C)C(=O)Nc1ccc2c(n1)N[C@@H](C)C(=O)N2` [US9155743, 15], the IC50 result was “in the range around 55 µM”.

Usually IC50 stands for the point on the concentration scale where inhibition reaches its midpoint.

For the origin of these results see BindingDB's records for patent US9155743 (Astex Therapeutics, 2015).
